# Experimental data: publication PMC8406319, “The dCache Chemoreceptor TlpA of Helicobacter pylori Binds Multiple Attractant and Antagonistic Ligands via Distinct Sites” (mBio, 2021)
# Assays:
# Test in all cases: biochemical
# [1] = target: T1, TlpAD165A (Helicobacter pylori, UniProt O24925, D165A)
# T1 sequence (O24925 28-299 D165A): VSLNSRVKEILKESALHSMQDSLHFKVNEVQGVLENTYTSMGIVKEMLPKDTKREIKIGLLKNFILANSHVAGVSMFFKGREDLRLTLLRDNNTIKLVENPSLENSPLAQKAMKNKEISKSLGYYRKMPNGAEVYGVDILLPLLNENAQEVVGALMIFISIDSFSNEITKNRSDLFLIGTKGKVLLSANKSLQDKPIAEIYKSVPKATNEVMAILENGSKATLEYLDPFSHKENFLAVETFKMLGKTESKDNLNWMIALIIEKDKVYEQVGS
# Text: (§1) The periplasmic portion of TlpA (TlpALBD), amino acids 28 to 299, from Helicobacter pylori SS1 was cloned into a pBH4 expression vector (pBH4_TlpALBD) to generate an N-terminal 6×His-tagged construct, with a tobacco etch virus (TEV) protease site, under the control of isopropyl-β-D-thiogalactopyranoside (IPTG) ([19]). […] TlpALBD and all point mutants were purified as described previously by Sweeney et al. ([19]).
# (§2) Purified TlpALBD was immobilized on a CM5 series S sensor chip, and binding affinities were tested using a Biacore S200 instrument (GE Healthcare) as described previously ([39], [57], [59]). Briefly, proteins were captured using an amine-coupling kit (GE Healthcare), in which the carboxylmethyl dextran matrix of the sensor chip was activated by the injection of a mixture of 0.2 M 1-ethyl-3-[(3-dimethylamino)propyl]-carbodiimide (EDC) and 0.05 M N-hydroxysuccinimide (NHS), followed by the neutralization of the remaining unreacted NHS ester groups by the injection of 1 M ethanolamine-HCl (pH 8.0). Purified TlpALBD was diluted in 10 mM sodium acetate buffer (pH 4.5) at a concentration of 100 μg/ml for immobilization to the chip. A total of 8,400 response units (RU) of TlpALBD were captured on flow cell 2. As a negative control, flow cell 1 was a blank control undergoing the same treatment as the other flow paths, without the protein injection. This set enabled double-reference subtraction of the responses (2 − 1, 3 − 1, and 4 − 1). The tested compounds were prepared as a stock concentration of 100 to 200 mM in PBS. The compounds were then diluted between 1 nM and 1 mM in a series of 1:10 dilutions in PBS and run over the flow cells at a flow rate of 30 μl/min. Between each sample testing, a series of buffer-only injections was run to enable double-blank subtraction for the sensorgram assessment. […] The data sets were analyzed using Biacore S200 evaluation software 2.0.2; sensorgrams were double-reference subtracted.
# [2] = target: T2, TlpAD254A (Helicobacter pylori, UniProt O24925, D254A)
# T2 sequence (O24925 28-299 D254A): T1 sequence (O24925 28-299 D165A)
# Text: as §1, §2
# [3] = target: T3, TlpALBD (TlpAWT) (Helicobacter pylori, UniProt O24925); details: SPR
# T3 sequence (O24925 28-299): T1 sequence (O24925 28-299 D165A)
# Text: as §1, §2
# [4] = target: T4, TlpAM183A (Helicobacter pylori, UniProt O24925, M183A)
# T4 sequence (O24925 28-299 M183A): T1 sequence (O24925 28-299 D165A)
# Text: as §1, §2
# [5] = target: T5, TlpAY228A (Helicobacter pylori, UniProt O24925, Y228A)
# T5 sequence (O24925 28-299 Y228A): T1 sequence (O24925 28-299 D165A)
# Text: as §1, §2
# [6] = target: T6, TlpAY252A (Helicobacter pylori, UniProt O24925, Y252A)
# T6 sequence (O24925 28-299 Y252A): T1 sequence (O24925 28-299 D165A)
# Text: as §1, §2
compound,measurement,setting,value
"O=C(O)CCC(=O)C(=O)O [α-Ketoglutarate, α-ketoglutaric acid]",Kd,[1],124 ± 7.1 µM
same,Kd,[2],321 ± 21.6 µM
same,Kd,"[3]; Mean binding affinity ± SD, Table 1, n = 3",224 ± 11.2 µM
same,Kd,"[3]; dissociation constant [Kd], WT TlpALBD",> 45 µM
same,Kd,[4],256 ± 27.6 µM
same,Kd,[5],295 ± 27.7 µM
same,Kd,[6],289 ± 22.6 µM
